Molecular target: Phosphatidylinositol 4,5-bisphosphate 3-kinase catalytic subunit alpha isoform (Homo sapiens, UniProt P42336)
Assay: Inhibition of PI3Kalpha

Chains of the proteins cited; added tags and fusions are not shown.
UniProt P42336, whole entry: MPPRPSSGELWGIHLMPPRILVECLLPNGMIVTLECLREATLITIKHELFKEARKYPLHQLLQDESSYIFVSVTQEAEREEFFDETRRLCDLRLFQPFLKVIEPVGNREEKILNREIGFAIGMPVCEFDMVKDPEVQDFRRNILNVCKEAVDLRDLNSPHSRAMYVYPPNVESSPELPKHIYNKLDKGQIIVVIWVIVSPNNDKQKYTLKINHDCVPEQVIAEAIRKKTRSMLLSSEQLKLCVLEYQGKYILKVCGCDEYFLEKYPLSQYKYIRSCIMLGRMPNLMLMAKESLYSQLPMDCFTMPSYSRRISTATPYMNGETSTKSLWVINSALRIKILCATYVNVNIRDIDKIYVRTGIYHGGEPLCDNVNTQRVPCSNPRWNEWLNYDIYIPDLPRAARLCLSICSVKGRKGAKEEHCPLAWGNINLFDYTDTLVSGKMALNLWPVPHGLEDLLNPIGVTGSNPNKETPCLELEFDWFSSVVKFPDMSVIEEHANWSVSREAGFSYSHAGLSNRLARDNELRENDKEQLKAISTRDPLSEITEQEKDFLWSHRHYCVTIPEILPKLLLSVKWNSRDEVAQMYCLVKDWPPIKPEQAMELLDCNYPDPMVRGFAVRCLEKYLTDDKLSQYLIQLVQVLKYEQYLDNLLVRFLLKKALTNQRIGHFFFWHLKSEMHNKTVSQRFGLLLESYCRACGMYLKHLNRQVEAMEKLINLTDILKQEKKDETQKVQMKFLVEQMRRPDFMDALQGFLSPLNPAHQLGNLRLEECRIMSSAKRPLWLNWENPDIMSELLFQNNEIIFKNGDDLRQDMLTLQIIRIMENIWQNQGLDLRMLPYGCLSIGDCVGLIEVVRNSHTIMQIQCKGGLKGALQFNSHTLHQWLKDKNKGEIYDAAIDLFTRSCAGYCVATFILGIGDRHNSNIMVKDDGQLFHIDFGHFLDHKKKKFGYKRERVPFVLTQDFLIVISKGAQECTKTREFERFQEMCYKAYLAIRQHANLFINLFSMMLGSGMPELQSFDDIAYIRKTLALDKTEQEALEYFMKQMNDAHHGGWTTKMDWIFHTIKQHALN

Q: How did the IC50 turn out when `CNC(=O)Nc1ccc(-c2nc(N3CC4CCC(C3)O4)c3cnn(C4CCC5(CC4)OCCCO5)c3n2)cc1` was run?
A: Its IC50 is 305 nM.

— ChEMBL document CHEMBL1156873, “Pyrazolopyrimidines as highly potent and selective, ATP-competitive inhibitors of the mammalian target of rapamycin (mTOR): optimization of the 1-substituent” (Bioorg Med Chem Lett, 2010)
